This note sets out measurements from PubChem BioAssay AID504523 (Broad Institute, 2011).

Amino acid sequences for entries named in this document (tags omitted).
UniProt Q14145, whole entry: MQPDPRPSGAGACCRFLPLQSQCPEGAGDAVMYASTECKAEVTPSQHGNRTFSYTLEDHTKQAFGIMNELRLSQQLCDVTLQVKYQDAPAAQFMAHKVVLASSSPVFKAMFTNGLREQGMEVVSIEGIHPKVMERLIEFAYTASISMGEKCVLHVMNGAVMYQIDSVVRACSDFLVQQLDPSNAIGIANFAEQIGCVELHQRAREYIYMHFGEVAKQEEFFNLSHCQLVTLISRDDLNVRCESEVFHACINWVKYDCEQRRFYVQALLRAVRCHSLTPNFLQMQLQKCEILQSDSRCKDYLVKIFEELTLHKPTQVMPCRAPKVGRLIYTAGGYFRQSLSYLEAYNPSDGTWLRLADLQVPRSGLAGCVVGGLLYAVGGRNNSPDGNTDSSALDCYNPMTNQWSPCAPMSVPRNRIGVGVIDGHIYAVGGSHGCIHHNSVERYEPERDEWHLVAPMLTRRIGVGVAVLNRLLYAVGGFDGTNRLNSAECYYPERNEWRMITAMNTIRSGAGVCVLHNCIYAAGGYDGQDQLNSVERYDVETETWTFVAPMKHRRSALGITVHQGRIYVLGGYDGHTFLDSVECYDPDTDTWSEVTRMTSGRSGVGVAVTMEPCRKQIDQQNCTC
UniProt Q16236, whole entry partner: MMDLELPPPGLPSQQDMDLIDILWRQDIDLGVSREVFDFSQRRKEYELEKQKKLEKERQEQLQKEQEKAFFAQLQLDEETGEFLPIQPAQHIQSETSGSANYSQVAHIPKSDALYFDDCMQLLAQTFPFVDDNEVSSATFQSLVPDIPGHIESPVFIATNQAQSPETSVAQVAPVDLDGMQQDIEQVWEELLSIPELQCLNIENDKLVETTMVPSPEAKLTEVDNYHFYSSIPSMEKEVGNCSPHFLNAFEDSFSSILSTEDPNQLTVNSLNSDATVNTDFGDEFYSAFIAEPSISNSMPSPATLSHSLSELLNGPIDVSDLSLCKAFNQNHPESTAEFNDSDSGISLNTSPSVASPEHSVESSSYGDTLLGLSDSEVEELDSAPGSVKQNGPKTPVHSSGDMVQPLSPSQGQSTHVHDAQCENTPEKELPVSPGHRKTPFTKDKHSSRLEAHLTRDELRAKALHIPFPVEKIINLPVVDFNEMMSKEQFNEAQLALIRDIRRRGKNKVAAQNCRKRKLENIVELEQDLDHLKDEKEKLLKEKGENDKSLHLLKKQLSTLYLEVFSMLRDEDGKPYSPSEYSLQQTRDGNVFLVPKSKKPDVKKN

This is a selection; strong and weak results do not stand in their true shares. Calls of active or inactive are those of the source. Cut-off read from the data, not from the text of the source: active = inhibition above about 12%; inconclusive = no clear call, values can overlap the other calls; inactive = below about 7.3%.

This assay has as its target Kelch-like ECH-associated protein 1 (Homo sapiens) (UniProt Q14145). In words: disruptors of Keap1 binding to Nrf2 – biochemical, fluorescence polarization, single point, primary screen (AID 504523).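 Note: human Keap1 Kelch domain with fluorescein labeled Nrf2 9mer peptide probe; 0% = neutral control wells and 100% = peptide positive control; higher means more block of Keap1 binding to Nrf2 peptide.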 To be noted: Keap1 Kelch-Nrf2 peptide fluorescence polarization, 1536-well; at 9.4 µM; stronger effect = higher value. On the technique in general: Polarisation of emitted light reports the rotation of a fluorescent probe.
`Cc1cc(N(CCCl)CCCl)ccc1C=O`: the inhibition (as a rule, the relative decrease from the control value, in per cent) was inactive: -4.58%. To `CCCN1CCC(Nc2cc(OC)cc(OC)c2)CC1` belongs active: 15%; to `c1ccc(CN2CCC(Nc3ccccc3)CC2)cc1`, inactive: 3.9%.

For `CN(C)C1(CNC(=O)c2cccc(C#N)c2)CCCCC1`, the inhibition was inactive: -1.65%. On to `CC(C)(C)OC(=O)N1CCC(N(C(=O)c2ccccc2)c2ccc(Cl)cc2)CC1`, for which the inhibition was inactive: -4.62%.

As for `N#Cc1ccc(C(=O)NCC2(N3CCCCC3)CCCCC2)cc1`, the inhibition is inactive: -0.387%. To `O=C(OC1CN2CCC1CC2)C1c2ccccc2C=Cc2ccccc21` (centres undefined) belongs inactive: -3.73%. With `N/C(=N\O)c1c(N)no[n+]1[O-]`, the inhibition was inactive: -2%.

Take `CCOC(=O)N1CCC(Nc2ccc(C)cc2)CC1`: the inhibition is inactive: -3.11%. Take `COc1ccc(C(=O)NCC2(N3CCOCC3)CCCCC2)cc1OC`: the inhibition is inactive: -4.91%.

For `O=C(NCC1(N2CCOCC2)CCCCC1)c1cc(Br)ccc1Cl`, the inhibition is inactive: -10.6%. Next, `COc1cc(C(=O)NCC2(N3CCOCC3)CCCCC2)cc(OC)c1C`: inactive: 4.48%. With `CN1CCC(Nc2ccc(Cl)cc2)CC1`, the inhibition is inactive: 2.22%.

As to `CCC(CO)(C(=O)OC1CN2CCC1CC2)c1ccccc1` (centres undefined), the inhibition was inactive: -0.487%. On to `COc1cc(OC)cc(C(=O)NCC2(N3CCOCC3)CCCCC2)c1`, for which the inhibition is inactive: -0.77%.

As to `COc1cccc(C(=O)N(c2cc(C)cc(C)c2)C2CCN(C(=O)OC(C)(C)C)CC2)c1`, the inhibition is inactive: -3.02%. `CCCOc1ccc(C(=O)NCC2(N(C)C)CCCCC2)cc1`: the inhibition was inactive: -1.22%. Consider `O=C(O)C1(Nc2ccccc2)CCN(Cc2ccccc2)CC1`, for which the inhibition was inactive: 2.96%. To `CC(C)(C)OC(=O)N1CCC(Nc2ccccc2)CC1` belongs inactive: -2.36%; to `CN1CCC(Nc2ccc(F)c(Cl)c2)CC1`, inactive: -8.01%. Take `CCOc1ncccc1C(=O)NCC1(N2CCOCC2)CCCCC1`: the inhibition is inactive: -4.82%. `Cn1c(=O)[nH]cc(N(CCCl)CCCl)c1=O`: the inhibition is inactive: -5.87%.

For `CN(C)c1ccc(C(=O)NCC2(N3CCCCC3)CCCCC2)cc1`, the inhibition was inactive: -1.56%. Next, `O=C(NCC1(N2CCCCC2)CCCCC1)c1ccco1`: inactive: -3.81%; `CCN1CCC(Nc2cccc(F)c2)CC1`: inactive: -2.69%. On to `Cc1ccccc1NC1(C#N)CCN(Cc2ccccc2)CC1`, for which the inhibition was inactive: -6.47%.

As to `Cc1ccc(NC2(C#N)CCN(Cc3ccccc3)CC2)cc1`, the inhibition was inactive: 2.73%. To `Fc1ccccc1NC1CCN(Cc2ccccc2)CC1` belongs inactive: 2.98%. As for `Cc1ccc(C(=O)NCC2(N3CCCCC3)CCCCC2)o1`, the inhibition is inactive: -0.272%. On to `COc1cc(OC)cc(C(=O)NCC2(N3CCCCC3)CCCCC2)c1`, for which the inhibition is inactive: -0.322%. Take `CC(=O)N(c1ccccc1)C1CCNCC1`: the inhibition was inactive: 5.03%. For `COc1cc(C(=O)NCC2(N(C)C)CCCCC2)ccc1OC(F)F`, the inhibition is inactive: -0.178%.

With `CCOC(=O)N1CCC(Nc2cccc(C)c2)CC1`, the inhibition is inactive: -4%. For `COc1ccc(NC2CCN(CCc3ccccc3)CC2)c(OC)c1`, the inhibition is inactive: -0.953%.

Take `CCOC(=O)N1CCC(Nc2ccc(F)cc2)CC1`: the inhibition is inactive: 1.12%. Regarding `O=C(NCC1(N2CCCCC2)CCCCC1)c1ccc(F)cc1`, the inhibition was inactive: -6.01%.

As for `O=P1(N(CCCl)CCCl)SCCCS1`, the inhibition was inactive: 7.06%.

As to `CCCCOc1ccc(C(=O)NCC2(N3CCOCC3)CCCCC2)cc1`, the inhibition is inactive: 1.1%. As to `CCOc1ccc(C)cc1CN(CCCl)CCCl`, the inhibition is inactive: -18.6%.

For the compound `O=C1CCN(Cc2ccccc2)CC1`, the inhibition is inactive: 0.118%. With `CCOC(=O)N1CCC(Nc2ccc(OC)cc2)CC1`, the inhibition is inactive: 0.564%. Regarding `COc1ccc(Cl)cc1C(=O)NCC1(N2CCOCC2)CCCCC1`, the inhibition was inactive: -7.62%. As to `O=C(OC1CN2CCC1CC2)C1c2ccccc2Oc2ccccc21` (centres undefined), the inhibition is inactive: -1.07%. Regarding `O=C(NCC1(N2CCCCC2)CCCCC1)c1ccc(Cl)s1`, the inhibition is inactive: -3.06%.

Turning to `N#CC1(Nc2ccccc2)CCN(Cc2ccccc2)CC1`, the inhibition was inactive: -1.97%.

As for `O=C(NCC1(N2CCOCC2)CCCCC1)c1cc2ccccc2o1`, the inhibition is inactive: -6.37%.

For `Cc1cc(C)cc(N(C(=O)c2ccccc2)C2CCN(C(=O)OC(C)(C)C)CC2)c1`, the inhibition was inactive: 2.11%. In the case of `O=C(NCC1(N2CCCCC2)CCCCC1)c1ccc(Cl)nc1`, the inhibition is inactive: -6.84%.

Consider `Cc1cccc(NC2(C#N)CCN(Cc3ccccc3)CC2)c1`, for which the inhibition was inactive: -5.04%.

Turning to `CSc1ccccc1C(=O)NCC1(N2CCCCC2)CCCCC1`, the inhibition is inactive: -0.0766%. `O=C(NCC1(N2CCCCC2)CCCCC1)c1cccs1`: the inhibition is inactive: -2.74%. `O=C(NCC1(N2CCCCC2)CCCCC1)c1ccc(=O)[nH]c1`: the inhibition was inactive: -6.19%. On to `CC(C)(C)OC(=O)N1CCC(N(C(=O)c2ccccc2)c2ccc(F)cc2)CC1`, for which the inhibition is inactive: 2.84%. With `COc1ccc(C(=O)NCC2(N3CCCCC3)CCCCC2)c(OC)c1OC`, the inhibition is inactive: -4.75%. As for `COc1ccc(C(=O)NCC2(N3CCCCC3)CCCCC2)cc1`, the inhibition is inactive: -4.78%.

For `CCCOc1ccc(C(=O)NCC2(N(C)C)CCCCC2)cc1OC`, the inhibition was inactive: -1.24%.

Consider `O=C(NCC1(N2CCCCC2)CCCCC1)c1cncc(Br)c1`, for which the inhibition was inactive: 3.12%.

Turning to `CN1CCC(Nc2cccc(F)c2)CC1`, the inhibition is inactive: 2.98%. As to `O=C(NCC1(N2CCOCC2)CCCCC1)c1cc(F)c(F)cc1Cl`, the inhibition was inactive: 0.928%. Regarding `COc1cc(OC)c(C(=O)NCC2(N(C)C)CCCCC2)cc1OC`, the inhibition is inactive: -0.177%. Consider `CN(C)c1cccc(C(=O)NCC2(N3CCCCC3)CCCCC2)c1`, for which the inhibition was inactive: 0.08%. To `COc1ccc(CN(CCCl)CCCl)cc1Cl` belongs inactive: 2.07%; to `CC(C)c1ccc(NC2CCN(C(=O)OC(C)(C)C)CC2)cc1`, inactive: -1.48%; to `CN1CCN(CCOC(=O)C(O)(c2ccccc2)c2ccccc2)CC1`, inactive: 1.33%. Next, `CC(C)c1ccc(C(=O)NCC2(N3CCOCC3)CCCCC2)cc1`: inactive: 3.5%; `COc1ccc(NC2CCN(C(=O)OC(C)(C)C)CC2)cc1`: inactive: -1.35%. To `COc1cc(C(=O)NCC2(N3CCCCC3)CCCCC2)ccc1OC(F)F` belongs inactive: -2.77%.

As to `O=C(NCC1(N2CCOCC2)CCCCC1)c1cc(=O)[nH]c2ccccc12`, the inhibition is inactive: 2.17%. As to `O=C(NCC1(N2CCCCC2)CCCCC1)c1cccc(C(F)(F)F)c1`, the inhibition was inactive: 2.24%. As to `O=C(NCC1(N2CCCCC2)CCCCC1)c1cccc([N+](=O)[O-])c1`, the inhibition was inactive: -1.6%.

`CSc1ccc(C(=O)NCC2(N3CCOCC3)CCCCC2)cc1`: the inhibition was inactive: -0.801%. Next, `N#CC1(Nc2ccccc2)CCN(CCc2ccccc2)CC1`: inactive: -1.52%; `CCN1CCC(Nc2ccc(Cl)cc2)CC1`: inactive: -1.55%; `O=C(NCC1(N2CCCCC2)CCCCC1)c1ccc(OC(F)F)cc1`: inactive: 5.48%.
